1 molecule from patent publication US7691965B2, “Helical synthetic peptides that stimulate cellular cholesterol efflux” (The Regents of the University of California, priority 2002, dated 2010) can be followed below.

Sequences of proteins named here, by UniProt entry; tags and fusion partners are left off. A change or cut given only in a name is not applied to a line headed by its entry.
UniProt P41233: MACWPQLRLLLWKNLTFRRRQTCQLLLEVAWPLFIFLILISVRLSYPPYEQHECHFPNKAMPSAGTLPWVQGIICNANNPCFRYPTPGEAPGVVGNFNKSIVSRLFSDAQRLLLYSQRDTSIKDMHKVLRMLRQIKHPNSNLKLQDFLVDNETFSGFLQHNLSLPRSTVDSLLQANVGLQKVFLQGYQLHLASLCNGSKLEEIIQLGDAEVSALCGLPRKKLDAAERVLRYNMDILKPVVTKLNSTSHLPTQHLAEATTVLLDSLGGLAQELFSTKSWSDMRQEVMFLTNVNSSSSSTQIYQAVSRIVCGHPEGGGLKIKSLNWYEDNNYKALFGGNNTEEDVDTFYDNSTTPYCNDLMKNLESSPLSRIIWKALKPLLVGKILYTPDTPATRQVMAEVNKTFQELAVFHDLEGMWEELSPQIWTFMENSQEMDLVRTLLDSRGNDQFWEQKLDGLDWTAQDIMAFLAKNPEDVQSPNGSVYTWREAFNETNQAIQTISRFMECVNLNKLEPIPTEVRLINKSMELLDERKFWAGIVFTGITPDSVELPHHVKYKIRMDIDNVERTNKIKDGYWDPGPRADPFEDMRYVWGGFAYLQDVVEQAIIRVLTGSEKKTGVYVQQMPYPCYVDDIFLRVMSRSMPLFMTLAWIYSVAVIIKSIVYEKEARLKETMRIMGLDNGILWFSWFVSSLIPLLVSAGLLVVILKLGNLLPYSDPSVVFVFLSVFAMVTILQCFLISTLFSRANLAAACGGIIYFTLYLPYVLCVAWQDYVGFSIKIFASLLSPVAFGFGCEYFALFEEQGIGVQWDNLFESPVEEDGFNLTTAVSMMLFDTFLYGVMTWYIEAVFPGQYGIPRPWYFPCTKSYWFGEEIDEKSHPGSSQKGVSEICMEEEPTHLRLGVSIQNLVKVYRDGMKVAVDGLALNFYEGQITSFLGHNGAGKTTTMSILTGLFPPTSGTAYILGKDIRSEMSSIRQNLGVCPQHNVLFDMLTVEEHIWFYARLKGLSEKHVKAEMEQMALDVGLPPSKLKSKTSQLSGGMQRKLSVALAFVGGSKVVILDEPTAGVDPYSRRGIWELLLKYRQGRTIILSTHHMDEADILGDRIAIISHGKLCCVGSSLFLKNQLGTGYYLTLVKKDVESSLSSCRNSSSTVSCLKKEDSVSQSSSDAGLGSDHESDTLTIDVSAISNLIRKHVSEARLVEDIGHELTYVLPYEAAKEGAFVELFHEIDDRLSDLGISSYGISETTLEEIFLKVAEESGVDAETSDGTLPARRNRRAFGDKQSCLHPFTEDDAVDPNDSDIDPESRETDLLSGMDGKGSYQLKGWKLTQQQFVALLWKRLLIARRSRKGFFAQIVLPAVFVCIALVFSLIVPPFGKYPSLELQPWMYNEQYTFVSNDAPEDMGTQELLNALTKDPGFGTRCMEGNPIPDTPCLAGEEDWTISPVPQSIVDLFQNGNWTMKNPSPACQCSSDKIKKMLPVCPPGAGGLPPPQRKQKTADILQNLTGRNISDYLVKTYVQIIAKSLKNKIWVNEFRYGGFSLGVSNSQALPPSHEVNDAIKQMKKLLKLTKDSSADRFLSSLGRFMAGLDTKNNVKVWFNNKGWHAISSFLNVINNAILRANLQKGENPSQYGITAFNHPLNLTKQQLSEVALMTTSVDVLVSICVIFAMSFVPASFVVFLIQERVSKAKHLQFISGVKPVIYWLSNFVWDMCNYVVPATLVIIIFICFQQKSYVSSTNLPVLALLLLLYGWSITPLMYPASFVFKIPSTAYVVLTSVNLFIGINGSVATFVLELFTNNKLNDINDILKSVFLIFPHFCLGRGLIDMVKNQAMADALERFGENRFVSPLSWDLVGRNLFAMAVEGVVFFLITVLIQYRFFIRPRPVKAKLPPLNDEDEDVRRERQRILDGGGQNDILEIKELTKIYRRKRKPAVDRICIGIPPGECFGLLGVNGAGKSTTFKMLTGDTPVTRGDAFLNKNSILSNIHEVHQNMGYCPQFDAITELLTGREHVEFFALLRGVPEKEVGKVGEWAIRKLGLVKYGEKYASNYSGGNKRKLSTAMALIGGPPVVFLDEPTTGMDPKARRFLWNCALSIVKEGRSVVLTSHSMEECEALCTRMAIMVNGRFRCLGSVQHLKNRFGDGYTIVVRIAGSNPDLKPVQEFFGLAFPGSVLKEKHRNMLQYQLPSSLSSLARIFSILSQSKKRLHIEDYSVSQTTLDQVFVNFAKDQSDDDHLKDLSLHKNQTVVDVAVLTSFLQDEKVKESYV

The assay concerns the target ABCA1 (Mus musculus, UniProt P41233). The assay is described as follows: Cellular cholesterol efflux from [3H]cholesterol-labeled J774 macrophages with and without cAMP analog. The assay is classed as cell-based. Also on record: endogenous in cells; host or cells: J774 macrophages treated with a cAMP analog (CPT-cAMP or 8-bromo-cAMP). The settings on record: lipid-free acceptor, J774 macrophages with vs without cAMP analog. From the text: Suitable cholesterol efflux assays are described in, e.g., Bielicki, J. K and Oda, M. N., Biochemistry, 41:2089-2096 (2002); Jia, Z. et al., Biochem. Biophys. Res. Common., 297:206-213 (2002). In some embodiments, a polypeptide known to mediate cholesterol efflux (e.g., helix 9/10 of Apo A-I) is used to screen for additional mediators of cholesterol efflux in a cell based assay. For example, cell lines in which cholesterol efflux can be enhanced using a cAMP analog that up-regulates ABCA1 protein expression (e.g., J774 macrophages) can conveniently be used to assess the ability of an Apo A-I, Apo A-II, Apo A-IV, Apo E, Apo C-I, Apo C-II, Apo C-III, or Serum Amyloid A peptide to mediate cholesterol efflux. […]
Cellular Cholesterol Efflux Protocol—J774 macrophages were used to assess the cholesterol efflux properties of synthetic amphipathic α-helical peptides (Bielicki, J. K and Oda, M. N., Biochemistry, 41:2089-2096 (2002); Jia, Z. et al., Biochem. Biophys. Res. Common., 297:206-213 (2002)). […] Efflux results were expressed as a percentage of the initial cellular [^3H] appearing in the medium as a function of time subtracting the background efflux obtained using serum-free medium alone.

B1: N-terminal four-helix bundle: N-terminal domain of apoE derived from apoE3, cysteine at position 112 (protein)
chain: KVEQAVETEPEPELRQQTEWQSGQRWELALGRFWDYLRWVQTLSEQVQEELLSSQVTQELRALMDETMKELKAYKSELEEQLTPVAEETRARLSKELQAAQARLGADMEDVCGRLVQYRGEVQAMLGQSTEELRVRLASHLRKLRKRLLRDADDLQKRLAVYQAGAREGAERGLSAIRERLGPLVEQGRVR
In the case of B1, the “ABCA1-dependent cholesterol efflux (result in words)” value is listed as “poorly active”.
